Measured logP (octanol/water) values of organic chemicals

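These are experimental values that the OPERA curators gathered from public databases to train and test their QSAR models. The files give a single number for a compound and property, which may rest on several reports. Conditions of the individual experiments are not part of the data. The measured form (salt, isomer or mixture) is not always the one drawn. Some upstream entries may be estimates or bounds without being marked so.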

The octanol-water partition coefficient is given as log10; larger values mean a more lipophilic compound. Cells with "–" have no entry in this list.

SMILES,name,log Kow
Clc1cc(-c2c(Cl)ccc(Cl)c2Cl)c(Cl)c(Cl)c1Cl,"2,2',3,3',4,5,6'-Heptachlorobiphenyl",7.11
Cc1ccc(S(=O)(=O)NC(=O)NN2CC3CCCC3C2)cc1 (stereo not drawn),Gliclazide,2.6
C=C(Br)C(=O)Nc1ccc(/N=N/c2c(N)ccc3cc(S(=O)(=O)[O-])cc(O)c23)c(S(=O)(=O)[O-])c1.[Na+].[Na+],–,-3.56
Cc1cc(OC(=O)c2ccc(O)cc2)ccc1OC(=O)c1ccc(O)cc1,"2-Methyl-1,4-phenylene bis(4-hydroxybenzoate)",2.1
SCCSCC(CS)SCCS (stereo not drawn),"1-Propanethiol, 2,3-bis[(2-mercaptoethyl)thio]-",3.16
CN(CCC#N)c1ccc(/C=C/C2=[N+](C)c3ccccc3C2(C)C)cc1.O=P([O-])(O)O,–,-1.744
Nc1ccc2cc(S(=O)(=O)[O-])cc(O)c2c1/N=N/c1ccc(Nc2nc(NCCS(=O)(=O)[O-])nc(N(CCO)CCO)n2)cc1S(=O)(=O)[O-].[Na+].[Na+].[Na+],–,-2.81
COC(=O)OC,Dimethyl carbonate,0.354
O=S(=O)([O-])c1cc(S(=O)(=O)[O-])c2ccc3c(S(=O)(=O)[O-])cc(S(=O)(=O)[O-])c4ccc1c2c43.[Na+].[Na+].[Na+].[Na+],"Tetrasodium 1,3,6,8-pyrenetetrasulfonate",-4.5
CC(C)(C)c1ccc(C(O)CCCN2CCC(C(O)(c3ccccc3)c3ccccc3)CC2)cc1 (stereo not drawn),Terfenadine,7.1
CCCCCCC(O)C/C=C\CCCCCCCC(=O)OCC(COC(=O)CCCCCCC/C=C\CC(CCCCCC)OC(=O)/C=C\C(=O)O)OC(=O)CCCCCCC/C=C\CC(O)CCCCCC (stereo partly drawn),Ricinoleyl monomaleate triglyceride,3
OCC1CCC(CO)CC1 (stereo not drawn),"1,4-Cyclohexanedimethanol",2.225
O=C(O)c1cc(O)cc(C(=O)O)c1,5-Hydoxyisophthalic acid,2.2
O=S(=O)([O-])c1ccc(/N=N/c2c(O)ccc3ccccc23)cc1.[Na+],C.I. Acid Orange 7,-0.95
COc1ccc(C(OC)OC)cc1,p-(Dimethoxymethyl)anisole,2.01
CC(C)CCOC(=O)c1cc(=O)[nH]c(=O)[nH]1,–,1.48
CCn1cc(C(=O)O)c(=O)c2ccc(-c3ccncc3)cc21,Rosoxacin,3
O=C1OCC(F)O1 (stereo not drawn),"1,3-Dioxolan-2-one, 4-fluoro-",-0.034
N[C@@H](CC(=O)N1CCn2c(nnc2C(F)(F)F)C1)Cc1cc(F)c(F)cc1F,Sitagliptin,1.5
Clc1ccc(Br)cc1Cl,"Benzene, 4-bromo-1,2-dichloro-",4.3
CC(=O)OCCC(C)(C)O,1-Acetoxy-3-methyl-3-butanol,0.8
COc1ccc(C)cc1C(CC(=O)O)c1ccccc1 (stereo not drawn),3-(2-Methoxy-5-methylphenyl)-3-phenylpropanoic acid,2.44
Cc1ccc(N(C)/N=C/C2=[N+](C)c3ccccc3C2(C)C)cc1.[Cl-],–,-0.609
CNS(=O)(=O)c1ccc([O-])c(/N=N/c2c([O-])ccc3cccc(NC(C)=O)c23)c1.CNS(=O)(=O)c1ccc([O-])c(/N=N/c2c([O-])ccc3cccc(NC(C)=O)c23)c1.[Cr+3].[Na+],–,-0.39
C=COC,Methoxyethene,0.42
O=C(O)c1cc(C(=O)O)cc(C(=O)O)c1,"1,3,5-Benzenetricarboxylic acid",1.35
O=C(NC1CCCCC1)NC1CCCCC1,"1,3-Dicyclohexylurea",3.33
COC(C)(C)CCO,3-Methoxy-3-methylbutan-1-ol,0.18
FC(F)=C(F)C(F)(F)OC(F)(F)C(F)(F)C(F)(F)F,–,4.7
C=CC(=O)OCc1c(Br)c(Br)c(Br)c(Br)c1Br,(Pentabromophenyl)methyl acrylate,5.11
CC(c1ccccc1)c1cc(C(=O)[O-])c(O)c(C(C)c2ccccc2)c1.CC(c1ccccc1)c1cc(C(=O)[O-])c(O)c(C(C)c2ccccc2)c1.[Zn+2] (stereo not drawn),"Zinc(2+) 3,5-bis(1-phenylethyl)salicylate",2.86
C[C@]12CC=C3C4=C(CC[C@H]3[C@@H]1CCC2=O)CC1(CC4)OCCO1,Estradiene dione-3-keta,3.4
C=CC(C)(C)C,"3,3-Dimethyl-1-butene",3.04
O=C(O)[C@H](CC(=O)N1C[C@H]2CCCC[C@H]2C1)Cc1ccccc1,Mitiglinide,2.9
Cl.O=C(c1ccc(F)cc1)C1CCNCC1,p-Fluorophenyl 4-piperidyl ketone hydrochloride,-1.1
CC(=O)C1=C(C)[C@@H]2C[C@@]3(C1)[C@H](C)CC[C@H]3C2(C)C,Acetylcedrene,5.75
Cl[Si](Cl)(Cl)c1ccccc1,Trichlorophenylsilane,-0.021

Extract of 5 entries:

SMILES,name,log Kow
CC(C)CCOC(=O)c1cc(=O)[nH]c(=O)[nH]1,–,1.48
CNS(=O)(=O)c1ccc([O-])c(/N=N/c2c([O-])ccc3cccc(NC(C)=O)c23)c1.CNS(=O)(=O)c1ccc([O-])c(/N=N/c2c([O-])ccc3cccc(NC(C)=O)c23)c1.[Cr+3].[Na+],–,-0.39
CCn1cc(C(=O)O)c(=O)c2ccc(-c3ccncc3)cc21,Rosoxacin,3
CC(c1ccccc1)c1cc(C(=O)[O-])c(O)c(C(C)c2ccccc2)c1.CC(c1ccccc1)c1cc(C(=O)[O-])c(O)c(C(C)c2ccccc2)c1.[Zn+2] (stereo not drawn),"Zinc(2+) 3,5-bis(1-phenylethyl)salicylate",2.86
C=C(Br)C(=O)Nc1ccc(/N=N/c2c(N)ccc3cc(S(=O)(=O)[O-])cc(O)c23)c(S(=O)(=O)[O-])c1.[Na+].[Na+],–,-3.56

Values as listed in the OPERA 2.9 repository of K. Mansouri.